# Source: ChEMBL document CHEMBL1124816, “Effect of structure on potency and selectivity in 2,6-disubstituted 4-(2-arylethenyl)phenol lipoxygenase inhibitors” (J Med Chem, 1990)
# Sequences of proteins named here, by UniProt entry; tags and fusion partners are left off. A change or cut given only in a name is not applied to a line headed by its entry.
# UniProt P35354: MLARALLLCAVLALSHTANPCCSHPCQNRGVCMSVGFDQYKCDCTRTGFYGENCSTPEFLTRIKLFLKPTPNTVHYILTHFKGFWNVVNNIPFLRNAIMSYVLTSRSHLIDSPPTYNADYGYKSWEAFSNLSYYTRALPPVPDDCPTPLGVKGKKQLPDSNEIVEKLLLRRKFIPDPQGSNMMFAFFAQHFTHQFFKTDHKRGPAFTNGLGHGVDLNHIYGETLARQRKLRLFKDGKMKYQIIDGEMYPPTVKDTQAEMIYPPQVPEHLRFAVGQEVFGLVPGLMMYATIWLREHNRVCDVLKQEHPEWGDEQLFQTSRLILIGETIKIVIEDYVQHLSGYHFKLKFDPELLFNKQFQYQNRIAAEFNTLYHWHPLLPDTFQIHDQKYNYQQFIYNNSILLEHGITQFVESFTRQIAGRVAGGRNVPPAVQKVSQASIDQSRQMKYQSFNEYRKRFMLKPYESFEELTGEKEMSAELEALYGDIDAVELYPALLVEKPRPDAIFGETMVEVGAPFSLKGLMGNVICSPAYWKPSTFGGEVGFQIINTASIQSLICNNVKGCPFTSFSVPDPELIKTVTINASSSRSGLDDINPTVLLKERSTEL
# UniProt P23219: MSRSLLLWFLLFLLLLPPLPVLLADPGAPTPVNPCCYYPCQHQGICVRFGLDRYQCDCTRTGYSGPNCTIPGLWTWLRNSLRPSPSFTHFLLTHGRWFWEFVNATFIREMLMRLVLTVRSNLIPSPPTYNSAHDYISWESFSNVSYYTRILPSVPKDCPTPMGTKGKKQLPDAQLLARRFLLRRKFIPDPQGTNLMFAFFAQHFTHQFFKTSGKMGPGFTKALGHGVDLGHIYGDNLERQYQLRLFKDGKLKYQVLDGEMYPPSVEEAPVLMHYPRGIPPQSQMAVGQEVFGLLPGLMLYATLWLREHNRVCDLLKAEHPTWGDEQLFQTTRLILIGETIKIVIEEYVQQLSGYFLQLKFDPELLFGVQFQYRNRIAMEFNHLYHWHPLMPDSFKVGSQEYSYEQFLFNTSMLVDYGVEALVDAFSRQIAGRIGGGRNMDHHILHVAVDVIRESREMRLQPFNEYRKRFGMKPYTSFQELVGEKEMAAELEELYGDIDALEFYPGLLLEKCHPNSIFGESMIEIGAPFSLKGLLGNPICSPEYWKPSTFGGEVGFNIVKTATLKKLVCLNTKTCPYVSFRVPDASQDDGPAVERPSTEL
# Biological target: Cyclooxygenase (Homo sapiens, UniProt P35354+P23219)
# Test: Inhibition of human platelet Prostaglandin G/H synthase
smiles,measurement,value
CC(C)(C)c1cc(/C=C/c2cccnc2)cc(C(C)(C)C)c1O,IC50,0.26 µM
